{"source": "patent US20160139120A1", "about": "(The Trustees of Columbia University in the City of New York, priority 2013, published 2016)", "key": {"C1q [1]": {"target": "T1, C1q (Homo sapiens, UniProt P02745+P02746+P02747)", "T1 construct": "purchased Quidel A400", "assay": "ELISA-like / blot assays of direct C1q binding to immobilized sRAGE", "method": "MaxiSorp plates were coated with 20 μg/ml sRAGE. […] Association and dissociation signals were monitored by surface plasmon resonance. […] Results in A, B and E were mean±SD of three independent experiments. *p<0.01 as compared to BSA. Results in C and D were representatives of three independent experiments. (F) MaxiSorp plate coating and blocking were similarly performed as in FIG. 1.\n96-well NUNC MaxiSorp plates were coated with 100 μl of 0-50 μg/ml of sRAGE in PBS at 4° C. overnight; remaining binding sites were blocked with 2% BSA in PBS for 2 h at room temperature. […] The final peroxidase activity was monitored at 492 nm with o-phenylenediamine dihydrochloride and hydrogen peroxide as substrates. A distinct dot blot-like assay was performed on the surface of a nitrocellulose membrane as follows: 1 μl of sRAGE in PBS was spotted onto a dry nitrocellulose membrane; after the membrane was air-dried, it was washed thoroughly with PBS. Remaining binding sites were blocked with 5% non-fat milk in PBS. […] ECL Western blot detection kit was used to visualize the binding."}, "complement system": {"tested_on": "complement system", "assay": "Complement activation assay (C3a formation in human serum)", "type": "biochemical", "details": "for complement activation activity relative to Avastin / human IgG1: immobilized proteins, FIG. 1", "method": "(B) 2 μg of sRAGE (from insect cells) and 1 mM of phenolphthalein bisphosphate were incubated in 20 μl of fresh human serum for 1 hour at 37° C. in a 5% CO2 incubator. Complement activation was monitored as C3a formation from proteolytic cleavage of C3 by ELISA kit.\nB. 2 μg of recombinant human Mac-1 (R&D Systems) and 0.4 μg of sRAGE from HEK293 cells were incubated in solution together and separately in 3 μl of PBS at 25° C. for 30 min; control condition was 3 μl of PBS only, then 7 μl of human serum was added to start 1 hour incubation at 37° C. C3a was assayed by ELISA kit.\nC3a levels in fresh human serum (A), C1q-depleted fresh human serum (B) and Mg-EGTA (5 mM Mg Cl2 and 10 mM EGTA) treated fresh human serum (C) were assayed after 1 h incubation at 37° C. in a 96-well NUNC MaxiSorp plate coated with 20 μg/ml of human sRAGE. (D) Complement activation by a fusion protein rhsRAGE/Fc and its Fc fragment. Two different forms of each protein were tested, one was immobilized and the other was free molecule in serum (dissolved). For immobilized forms, 96-well MaxiSorp plate was coated with 50 μg/ml of each protein and blocked with BSA. Complement activation was performed as in (A). For soluble forms of these two proteins, a mixture of 30 μl of fresh human serum and 10 μl of either rhsRAGE/Fc or Fc (200 μg/ml) was incubated for 1 h at 37° C. in a 5% CO2 incubator. Results in (A), (B) and (C) were mean±SD of four independent experiments each performed in triplicate. Results in (D) were mean±SD of three independent experiments. *p<0.01 as compared to BSA.\n96-well NUNC MaxiSorp plate was coated with 100 μl of 20 μg/ml of sRAGE in PBS at 4° C. overnight; remaining binding sites were blocked with 2% BSA in PBS for 2 h at room temperature. Complement activation was initiated with incubation of normal human serum (20 μl) or C1q-depleted human serum in the plate at 37° C. in a 5% CO2 incubator. After 1 h incubation, C3a levels in the human serum were determined as a marker of complement activation with human C3a EIA kit according to the manufacturer's instructions."}, "C1q [2]": {"target": "T1, C1q", "assay": "Pull-down of sRAGE by immobilized C1q", "type": "binding", "details": "for pull-down of sRAGE by immobilized C1q: PBS; for C1q-sRAGE binding at reduced ionic strength: PBS diluted four-times (¼ PBS)", "method": "Pull-down of sRAGE by immobilized BSA and C1q was tested in two different solutions, one was physiological solution—PBS and the other was four-times diluted physiological solution—¼ PBS. […] A representative of three independent experiments was shown.\n(§1) After blocking with 2% BSA in PBS, the plate was incubated with 0.1 ml sRAGE (0.1 mg/ml) in 2% BSA in PBS at room temperature for 1 h. After the wells were washed quickly three times with cold PBS, NuPAGE sample buffer was used to denature and collect sRAGE from the plate for Western blot detection. […] The plate was cooled down on ice for 10 min and washed quickly three-times with cold ½ PBS. SDS-NuPAGE sample buffer was used to dissolve proteins in the plate and used for electrophoresis and Western blots of C1q and sRAGE. Stripping of Western blot membranes was performed with buffer from Pierce according to the manufacturer's instructions."}, "[3]": {"details": "mouse, in vivo; cited from earlier work"}, "Mac-1": {"target": "T2, Mac-1 (Homo sapiens, UniProt P05107+P11215)", "T2 construct": "purchased R&D Systems 4047-AM", "assay": "Pull-down of sRAGE and C1q by immobilized Mac-1", "type": "binding", "details": "½ PBS", "method": "Western blots were used to detect the pull-down amount of sRAGE and C1q. […] Result was a representative of three independent experiments.\nas §1"}, "Escherichia coli": {"tested_on": "Escherichia coli", "details": "wild type mice treated; cited from earlier work"}}, "note": "“Also recorded” adds a separate entry of the source."}
{"substance": "denatured and reduced sRAGE: sRAGE denatured and reduced, tested in a Western blot-like procedure", "values": [{"measurement": "C1q binding in Western blot-like procedure", "setting": "C1q [1]; denatured and reduced protein, data not shown", "value": "C1q binding abilities were lost"}]}
{"substance": "rhsRAGE/Fc: chimeric protein combining extracellular domain of human RAGE and Fc region of human IgG1 (R&D Systems 1145-RG)", "values": [{"measurement": "complement activation by protein in solution (dissolved)", "setting": "complement system; free molecule in fresh human serum (FIG. 14D)", "value": "also activated complement"}, {"measurement": "complement activation by immobilized protein (C3a)", "setting": "complement system; plate coated 50 μg/ml, fresh human serum (FIG. 14D)", "value": "activate the classical complement pathway"}]}
{"substance": "sRAGE: human sRAGE, the extracellular domain of the receptor, from Sf9 insect cells or HEK293 cells", "values": [{"measurement": "pull-down of sRAGE by immobilized C1q", "setting": "C1q [2]", "value": "pull-down sRAGE"}, {"measurement": "C1q-sRAGE binding at reduced ionic strength", "setting": "C1q [2]", "value": "greatly enhanced"}, {"measurement": "C1q-sRAGE binding at reduced ionic strength", "setting": "C1q [2]; listed as RAGE", "value": "RAGE-C1q binding is ionic strength-dependent, as"}, {"measurement": "pull-down of sRAGE by immobilized C1q", "setting": "C1q [2]; listed as RAGE", "value": "Direct RAGE-C1q binding confirmed by pull-down"}, {"measurement": "complement activation by immobilized protein in C1q-depleted human serum", "setting": "complement system; C1q-depleted human serum", "value": "lost their ability to activate the complement system"}, {"measurement": "complement activation activity relative to Avastin / human IgG1", "setting": "complement system", "value": "1/8"}, {"measurement": "complement activation activity relative to Avastin / human IgG1", "setting": "complement system; listed as RAGE", "value": "one eighth; also recorded: RAGE has ⅛ complement activation activity of"}, {"measurement": "complement activation by immobilized protein (C3a)", "setting": "complement system; plate coated 20 μg/ml, fresh human serum, 1 h 37° C.", "value": "activated the complement system with comparable degrees of activity; also recorded: capable of activating complement systems with comparable activity"}, {"measurement": "complement activation by immobilized protein (C3a)", "setting": "complement system; plate coated 20 μg/ml, fresh human serum, 1 h 37° C., listed as RAGE", "value": "Immobilized RAGE activates classical complement"}, {"measurement": "complement activation in liquid phase", "setting": "complement system; protein(s) preincubated in PBS then added to fresh human serum (FIG. 13B)", "value": "could not activate the complement system"}, {"measurement": "development of acellular capillaries and pericyte ghosts", "setting": "[3]", "value": "suppressed the development of acellular capillaries and pericyte ghosts"}, {"measurement": "neuronal dysfunction assessed by electroretinography", "setting": "[3]", "value": "attenuated neuronal dysfunction"}, {"measurement": "pull-down of C1q from native human serum by immobilized sRAGE", "setting": "C1q [1]; 500-fold diluted fresh human serum", "value": "pull-down C1q, effectively"}, {"measurement": "binding affinity for C1q relative to human IgG", "setting": "C1q [1]; FIG. 10F, preliminary data, vs human IgG1 (Avastin)", "value": "roughly one tenth"}, {"measurement": "C1q binding to the two immobilized human forms of sRAGE", "setting": "C1q [1]; purified C1q 2 μg/ml, anti-C1q:HRP detection", "value": "comparable binding for C1q"}, {"measurement": "pull-down by immobilized Mac-1, proteins incubated separately", "setting": "Mac-1", "value": "pulled down"}, {"measurement": "pull-down by immobilized Mac-1, sRAGE and C1q co-incubated", "setting": "Mac-1", "value": "increased"}, {"measurement": "defense against the growth and/or dissemination of E. coli", "setting": "Escherichia coli", "value": "weaker defense against the growth and/or dissemination of E. coli"}]}
